Target: CXC chemokine receptor (CXCR) 4 on THP-1 cells (human (endogenous in THP-1)) (UniProt P61073)

Sequences of proteins named here, by UniProt entry; tags and fusion partners are left off.
UniProt P61073, whole entry: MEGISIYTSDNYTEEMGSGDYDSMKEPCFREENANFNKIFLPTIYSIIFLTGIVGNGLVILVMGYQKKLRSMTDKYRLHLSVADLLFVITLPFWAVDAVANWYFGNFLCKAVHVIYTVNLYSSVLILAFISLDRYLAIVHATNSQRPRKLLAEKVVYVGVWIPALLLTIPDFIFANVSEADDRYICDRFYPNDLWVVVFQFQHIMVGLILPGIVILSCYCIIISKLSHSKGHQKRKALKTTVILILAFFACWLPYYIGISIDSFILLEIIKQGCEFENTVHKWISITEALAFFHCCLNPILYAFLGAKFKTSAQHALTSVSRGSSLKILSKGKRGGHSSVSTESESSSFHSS

LogIC50 (pM), reduction of cAMP levels in forskolin-stimulated THP-1 cells	bottom plateau (%), reduction of cAMP levels in forskolin-stimulated THP-1 cells [%]	Substance
2 log(pM)	58.7	Ub(1–74)DD (from UniProt P0CG47 1-76) (ligand)
2.1 log(pM)		Ub(1–74)VV (from UniProt P0CG47 1-76) (ligand)

The next lines start with the substance.

Substance	LogIC50 (pM), reduction of cAMP levels in forskolin-stimulated THP-1 cells	bottom plateau (%), reduction of cAMP levels in forskolin-stimulated THP-1 cells [%]
Ub(1–74)GGY (from UniProt P0CG47 1-76) (ligand)	2.6 log(pM)	78.2
Ub(1–74)RR (from UniProt P0CG47 1-76) (ligand)	2.1 log(pM)	
ubiquitin (from UniProt P0CG47 1-76) (ligand)		59.9

Reference: paper PMC4113718
